Among the data in ChEMBL document CHEMBL5236559 (J Med Chem, 2021) are inhibition and Activity values, retold here.

Test [1] deals with T1, Glutathione reductase, mitochondrial (Homo sapiens) (UniProt P00390).
T1 sequence (whole entry): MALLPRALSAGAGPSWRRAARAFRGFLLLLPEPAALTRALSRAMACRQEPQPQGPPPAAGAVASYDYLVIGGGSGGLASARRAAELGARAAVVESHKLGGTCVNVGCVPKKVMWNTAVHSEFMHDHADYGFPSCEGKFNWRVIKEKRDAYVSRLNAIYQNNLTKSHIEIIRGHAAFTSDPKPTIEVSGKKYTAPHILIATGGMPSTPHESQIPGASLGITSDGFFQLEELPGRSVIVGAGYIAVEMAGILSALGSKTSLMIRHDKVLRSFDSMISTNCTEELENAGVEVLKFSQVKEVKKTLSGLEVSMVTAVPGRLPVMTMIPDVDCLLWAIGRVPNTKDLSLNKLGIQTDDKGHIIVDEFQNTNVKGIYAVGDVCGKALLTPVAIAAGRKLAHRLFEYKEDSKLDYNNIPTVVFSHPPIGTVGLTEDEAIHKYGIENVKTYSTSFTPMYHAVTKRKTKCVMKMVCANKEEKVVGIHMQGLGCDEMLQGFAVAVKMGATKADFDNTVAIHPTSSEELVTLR
Put plainly: Inhibition of glutathione reductase (unknown origin) incubated for 30 mins in presence of NADPH by spectrophotometric method.

For test [2], the system named is HL-60. Put plainly: Inhibition of TrxR in human HL-60 cells at 2 uM incubated for 24 hrs by endpoint insulin reduction assay relative to control.
Test [3] relates to HL-60. The experiment in a line: Induction of apoptosis in human HL-60 cells incubated for 24 hrs by annexinV-FITC/propidium iodide staining based flow cytometry analysis. Conditions: dose 0.5-1 µM. (A flow cytometer gives signals particle by particle.)
The subject of test [4] is HL-60. Put plainly: Induction of apoptosis in human HL-60 cells assessed as increase in cleaved caspase-3 level incubated for 12 hrs by Western blot analysis. Conditions: dose 0.5-1 µM.
The subject of test [5] is HL-60. Put plainly: Induction of apoptosis in human HL-60 cells assessed as decrease in procaspase-3 level incubated for 12 hrs by Western blot analysis. The following applies: dose 0.5-1 µM. In general terms: A western blot detects proteins with antibodies after separation by electrophoresis.
In test [6] the test system is HL-60. Put plainly: Induction of ROS production in human HL-60 cells assessed as increase in red fluorescence incubated for 2 hrs by DHE staining based fluorescent microscopic analysis. Conditions: dose 10.0 µM.
Test [7] relates to HL-60. Put plainly: Inhibition of TrxR activity in human HL-60 cells incubated for 8 hrs by TRFS-green staining based microscopic analysis. The following applies: dose 0.5-2 µM.
Test [8] deals with HL-60. Put plainly: Induction of apoptosis in human HL-60 cells at 0.5 to 1 uM incubated for 24 hrs by Hoechst 33342 Staining based assay. Conditions: dose 0.5-1 µM.
Test [9] deals with HL-60. The experiment in a line: Induction of ROS production in human HL-60 cells assessed as increase in fluorescence intensity at 10 uM incubated for 2 hrs by DCFH-DA staining based fluorescent microscopic analysis.
Test [10] concerns HeLa. The experiment in a line: Cytotoxicity against human HeLa cells expressing TrxR assessed as reduction in cell viability incubated for 48 hrs by MTT assay.
In test [11] the test system is HL-60. Put plainly: Induction of apoptosis in human HL-60 cells assessed as activation of caspase-3 expression at 0.5 to 1 uM incubated for 12 hrs by colorimetric assay. Conditions: dose 0.5-1 µM.

Activity calls are given as the source filed them. No cut-off for these calls is given here.

Turning to `Nc1cccc([As]2SCCCS2)c1`, the inhibition entry in [1] is “Active”. In [2], this molecule had an inhibition of 60%.

For the molecule `Nc1ccc([As]2SCCCS2)cc1`, in test [1], the inhibition result is “Active”. The inhibition in test [2] is 40%.

On to `Nc1ccccc1[As]1SCCCS1`, for which the inhibition result in test [1] is “Active”. Also, the Activity entry in test [3], in test [4], in test [5], in test [6] and in test [11] was “Dose-Dependent Effect” each time. Further, the inhibition in [2] is 70%; in test [7], “Dose-Dependent Effect”. Also, the outcome in test [8], in test [9] and in [10] was Active.

By inhibition is commonly meant the drop in the measured response relative to a control, in per cent.
